Earlier results on 1 compound are cited in patent US10399924B2, “Deuterium substituted fumarate derivatives” (Biogen MA Inc., priority 2012, dated 2019).

The conditions of this data set: ALS; cited from earlier work.

On to `Nc1nc2ccc(OC(F)(F)F)cc2s1` [riluzole], for which the extension of survival entry is “approximately 3 months”.
